Assay [1] concerns the target 5-hydroxytryptamine receptor 1A (Homo sapiens, UniProt P08908). In words: Displacement of [3H]8-OH-DPAT from 5-HT1A receptor expressed in CHO cells after 20 mins by liquid scintillation counting. (Loss of bound radioactivity is the signal in a displacement assay; it reports binding, not function.)
Assay [2] deals with 5-hydroxytryptamine receptor 2A (Homo sapiens, UniProt P28223). In words: Binding affinity at 5-HT2A receptor by radioligand displacement assay.
The next assay concerns the target Histamine H1 receptor (Homo sapiens, UniProt P35367). In words: Displacement of [3H]-Pyrilamine from human histamine H1 receptor by liquid scintillation counter. The essentials: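 Radioligand binding run by the NIMH Psychoactive Drug Screening Program. […] Standard errors were within 20% of the mean.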

Protein sequences, listed by entry. Tags and fused reporters are not part of them.
UniProt P08908, whole entry: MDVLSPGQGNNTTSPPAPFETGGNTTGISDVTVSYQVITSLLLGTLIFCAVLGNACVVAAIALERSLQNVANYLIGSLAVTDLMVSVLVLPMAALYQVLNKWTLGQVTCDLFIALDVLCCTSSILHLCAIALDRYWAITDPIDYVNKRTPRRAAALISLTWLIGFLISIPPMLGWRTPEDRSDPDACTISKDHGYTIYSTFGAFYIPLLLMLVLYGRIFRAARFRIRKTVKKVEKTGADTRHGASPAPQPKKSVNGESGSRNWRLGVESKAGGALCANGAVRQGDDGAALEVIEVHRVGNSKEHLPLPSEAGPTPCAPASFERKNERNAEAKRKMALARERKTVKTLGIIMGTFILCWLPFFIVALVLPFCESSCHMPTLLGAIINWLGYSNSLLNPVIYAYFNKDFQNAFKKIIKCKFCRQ
UniProt P28223, whole entry: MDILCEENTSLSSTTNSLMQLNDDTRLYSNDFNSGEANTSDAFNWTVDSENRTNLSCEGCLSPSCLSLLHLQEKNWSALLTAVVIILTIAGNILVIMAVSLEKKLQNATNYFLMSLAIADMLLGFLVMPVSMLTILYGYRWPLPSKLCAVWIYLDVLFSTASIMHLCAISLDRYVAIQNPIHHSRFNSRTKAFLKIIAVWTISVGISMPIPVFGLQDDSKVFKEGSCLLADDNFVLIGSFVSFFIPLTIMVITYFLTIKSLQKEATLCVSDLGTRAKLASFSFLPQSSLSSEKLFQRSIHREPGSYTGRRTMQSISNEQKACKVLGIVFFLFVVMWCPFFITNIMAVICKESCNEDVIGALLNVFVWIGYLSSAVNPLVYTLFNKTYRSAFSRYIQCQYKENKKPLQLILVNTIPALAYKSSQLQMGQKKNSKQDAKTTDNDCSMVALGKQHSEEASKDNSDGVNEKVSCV
UniProt P35367, whole entry: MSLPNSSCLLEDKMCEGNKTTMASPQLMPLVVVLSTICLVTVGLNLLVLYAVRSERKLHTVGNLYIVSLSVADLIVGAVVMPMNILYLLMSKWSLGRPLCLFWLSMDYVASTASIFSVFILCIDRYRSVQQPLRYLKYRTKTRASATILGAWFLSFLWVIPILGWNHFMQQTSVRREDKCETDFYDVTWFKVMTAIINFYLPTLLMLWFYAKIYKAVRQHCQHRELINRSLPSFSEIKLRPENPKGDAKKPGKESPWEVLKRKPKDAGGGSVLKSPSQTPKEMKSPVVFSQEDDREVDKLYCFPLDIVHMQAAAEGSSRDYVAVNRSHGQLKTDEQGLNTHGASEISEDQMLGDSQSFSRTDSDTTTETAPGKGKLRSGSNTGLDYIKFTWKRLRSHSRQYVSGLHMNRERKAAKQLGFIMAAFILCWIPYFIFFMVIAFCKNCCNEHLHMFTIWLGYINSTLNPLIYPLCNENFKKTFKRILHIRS

Among the data in BindingDB's records for doi:10.1016/j.bmc.2012.01.022 (Florida A&M University, 2012) are Ki values, retold here.

As a reminder, the Ki is a measure of affinity in units of concentration, obtained from inhibition or displacement. A lower Ki goes with tighter binding.

Turning to `OC1(c2ccc(Cl)cc2)C[C@H]2CC[C@@H](C1)N2CCCCc1ccc(F)cc1` (some centres undefined), the Ki in assay [1] stood at 102 nM.
For the compound `OC1(c2ccc(Cl)cc2)C[C@H]2CC[C@@H](C1)N2CCCOc1ccc(F)cc1` (some centres undefined), the Ki in assay [1] is 123 nM; in assay [2], 236 nM; on Histamine H1 receptor, 4150 nM.
